Measured values: PubChem BioAssay AID590 (National Center for Advancing Translational Sciences (NCATS), 2007)
Only a part is listed here, and it is no random draw. Inconclusive results are not listed. Calls of active or inactive are those of the source. Rule as the data show it: active = max dye-equivalent concentration above about 10 nM; inconclusive = mostly about 1.1 nM to 9.6 nM; inactive = weaker than that.

Assay: qHTS Assay for Spectroscopic Profiling in A350 Spectral Region
Details: Compound autofluorescence, 340/450 nm, Alexa 350 dye-equivalents
From the text: NIH Molecular Libraries Screening Centers Network [MLSCN]
NIH Chemical Genomics Center [NCGC]
Occasionally, the artifactual effect may originate from the compounds own spectral or other biophysical properties which generally tend to track its assay concentration. Pre-screening/profiling the library with respect to the compounds spectral properties should help one exclude false positives early on. While the most informative fluorescent profiling data set is obtained by performing a full excitation and emission scan of each well by using a monochromator-based plate reader, such an approach is practical only on a very limited scale as scanning each well requires long time. An alternative approach, applied here, is to perform plate reader scans using selected excitation and emission wavelength pairs to generate a multidimensional relational database that correlates compound concentration and the respective relative fluorescence intensity at a given wavelength set. A standard curve of Alexa 350 (A 350) present on each plate as six-point concentration series, was used to compute a normalized fluorescence response, termed dye-equivalent concentration, for each compound at each concentration.
NCGC Assay Protocol Summary:
100 mM Tris buffer, pH 8.0
The wells in columns 1 through 4 of a Kalypsys polypropylene 1536-well compound plate were filled with standard solutions of fluorophore corresponding to the spectral region of interest. Solutions of A 350 were placed in the following wells: I1, J1: 3 mM, I2, J2: 300 uM, I3, J3: 30 uM, I4, J4: zero (DMSO), K1, L1: 3 uM, K2, L2: […], K3, L3: 300 nM, K4, L4: zero (DMSO).
Six uL of buffer were dispensed to 1536-well Greiner black plates. Compounds and dye standards (23 nL) were transferred via Kalypsys PinTool. The plates were incubated for 15 min at room temperature, and then read on ViewLux (Perkin-Elmer) High-throughput CCD imager using 340 nm and 450 nm excitation and emission filter set.
Keywords: NIH Roadmap, MLSCN, MLI, MLSMR, qHTS, NCGC, A350, A-350, Fluorescent Profiling.

For `N/C(=N\O)c1c(N)no[n+]1[O-]`, which outcome is on record?
Its outcome is “inactive”.

For `CCC(CO)(C(=O)OC1CN2CCC1CC2)c1ccccc1` (stereo unspecified), which outcome is on record?
Its outcome is “inactive”.

For `O=C(O)C1(Nc2ccccc2)CCN(Cc2ccccc2)CC1`, which outcome is on record?
Its outcome is “inactive”.

With `CCOc1ncccc1C(=O)NCC1(N2CCOCC2)CCCCC1` as the molecule, how does the outcome read?
Its outcome is “inactive”.

For `O=C(OC1CN2CCC1CC2)C1c2ccccc2Oc2ccccc21` (stereo unspecified), which outcome is on record?
The outcome was “inactive”.

For `N#CC1(Nc2ccccc2)CCN(CCc2ccccc2)CC1`, which outcome is on record?
The outcome was “inactive”.
